Hits are enriched below; roughly 1.1% of the tested compounds scored in any of these assays.
miR-21 FLuc: miR-21 reporter, rising signal; HeLa miR-21 FLuc reporter, luciferase, 48 h; Potency, µM (titrated, usually from 38.3 µM), without a hit: top-dose reporter change, positive = more light; AID 2288; 340,000 tested, under 10 active; active = well fitted rising curve with a large enough effect; inconclusive = small, poorly fitted or top-dose-only effect; inactive = no such curve, though single readings can be large or run the other way;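 further: % of control where 0% means no effect; miR-21 action dims this reporter so a rising signal means less miR-21 action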
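HeLa cells endogenously expressing miR-21, stably carrying CMV-driven firefly luciferase with a downstream miR-21 binding site, 2000 cells/well. Titrations up to approximately 40 uM, 48 hours; luciferase luminescence read.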
TrxR1 substrate: is turned over as a substrate by rat TrxR1. O89049. purified TrxR1 substrate turnover, NADPH consumption readout. Potency, µM (titrated, usually from 114 µM), inactives show at the top dose activity change, negative = substrate turnover. hit rate 0.01% among 390,000; note: potency is the fitted concentration of half-maximal effect; % is set by controls: 0 for no effect and ±100 for the full control effect; nearly all actives have a fitted effect of over 50% in size
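Rat TrxR1, dispensed at 90 nM, was prereduced with 400 uM NADPH (final) for 5 min at ~22 deg C, then incubated with compound 15 min before 400 uM selenite. A first-read NADPH fluorescence drop versus no-compound background flagged substrates.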
PINK1 expr mod: changes PINK1 expression; PINK1 immunofluorescence, high-content cytometry, 24 h; Potency, µM (titrated, usually from 76.6 µM), without a hit: top-dose activation (PINK1 increase), usual class: activators; hit rate 0.2% among 410,000; active = well fitted activation curve with a large enough effect; inconclusive = small, poorly fitted or top-dose-only effect; cell line not stated here; note: potency is the fitted concentration of half-maximal effect; % of control where 0% means no effect; nearly all actives have a fitted effect of over 65% in size
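A stable cell line was treated with compounds at 5 concentrations for 24 hours, with CCCP as control. PINK1 levels and mitochondrial localization were measured by immunofluorescence with mitochondrial, cell and nuclear markers after fixation, read by laser-scanning cytometry.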
TrxR1 inh: blocks rat thioredoxin reductase 1; O89049; recombinant rTrxR1, NADPH fluorescence consumption, selenite substrate; Potency, µM (series often up to 114 µM), for the others: at the highest dose activity change, negative = inhibition, actives largely listed as inhibitors; hit rate 1% among 390,000; AID 588453; note: potency is the fitted concentration of half-maximal effect; % is set by controls: 0 for no effect and ±100 for the full control effect; nearly all actives have a fitted effect of over 65% in size
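Rat TrxR1 (90 nM in the dispensed reagent) was pre-reduced with 400 uM NADPH for 5 min at room temperature, then incubated with compound for 15 min. After 400 uM selenite was added, NADPH fluorescence (Ex 340/Em 450 nm) was followed for 8 min.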
GALK inhibitor: inhibitors of human galactokinase; P51570; Purified GALK, Kinase-Glo residual ATP luminescence; Potency, µM (highest dose often 57.5 µM), for inactives: top-dose activity change, negative = inhibition, most hits filed as inhibitors; hit rate 0.007% among 270,000; note: potency is the fitted concentration of half-maximal effect; % is set by controls: 0 for no effect and ±100 for the full control effect
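GALK at 5 nM final was combined with compound, 35 uM ATP and 100 uM galactose in HEPES pH8.0 with MgCl2 and DTT. The reaction ran one hour at room temperature before luminescent ATP detection.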
Active calls of the source: *; ! = repeats disagree; [ ] = remark or other dose. Unless noted, calls come from the whole dose curve; as a rule, active = well fitted curve in the direction sought with a large enough effect; inconclusive = small, poorly fitted or top-dose-only effect, or another doubt; inactive = no such curve, though single readings can be large; an effect the other way counts as inactive or inconclusive.

What do the screens show for `COc1ccccc1-c1nn2c(=O)cc(CN3CCN(C(=O)/C=C/c4ccccc4)CC3)nc2s1`?
miR-21 FLuc: 3.9%; TrxR1 substrate: 0.0%[57.1 µM]; PINK1 expr mod: -1.4%; TrxR1 inh: 9.6%[57.1 µM]

What do the screens show for `O=C(Oc1ccc(=O)n(-c2ccccc2)n1)c1ccc(Cl)cc1`?
miR-21 FLuc: -1.3%; TrxR1 substrate: 6.3%[57.1 µM]; PINK1 expr mod: -0.5%; TrxR1 inh: inconclusive; GALK inhibitor: 3.2%

Results for O=C(Oc1ccc(=O)n(-c2ccccc2)n1)c1cccc(Cl)c1 ?
miR-21 FLuc: -0.6%; TrxR1 substrate: 13.1%[57.1 µM]; PINK1 expr mod: -1.4%; TrxR1 inh: 3.55µM*; GALK inhibitor: 4.4%

How did COc1ccc(-c2cc(N)n(S(=O)(=O)c3c(F)c(F)c(F)c(F)c3F)n2)cc1OC do in these assays?
miR-21 FLuc: inconclusive; TrxR1 substrate: 0.0%; PINK1 expr mod: inconclusive; TrxR1 inh: 2.82µM*; GALK inhibitor: 1.9%

What do the screens show for `O=C(COC(=O)c1ccc2c(c1)OCO2)NC1CCS(=O)(=O)C1` (stereo not drawn)?
miR-21 FLuc: -2.9%; TrxR1 substrate: 11.4%; PINK1 expr mod: -1.2%; TrxR1 inh: 79.4µM*; GALK inhibitor: 2.8%

What do the screens show for `CS(=O)(=O)c1ccc(C(=O)OCC(=O)NCc2cccs2)cc1[N+](=O)[O-]`?
TrxR1 substrate: 9.6%[57.1 µM]; PINK1 expr mod: -2.0%; TrxR1 inh: 1.78µM*

What do the screens show for `O=C(COC(=O)c1ccc([N+](=O)[O-])o1)Nc1cccc2ccccc12`?
miR-21 FLuc: 9.2%; TrxR1 substrate: -1.0%; PINK1 expr mod: -0.1%; TrxR1 inh: 20µM*; GALK inhibitor: -0.1%

How did O=C(COC(=O)c1ccc([N+](=O)[O-])o1)NC1CCS(=O)(=O)C1 (stereo not drawn) do in these assays?
miR-21 FLuc: 1.9%; TrxR1 substrate: -7.2%; PINK1 expr mod: 2.9%; TrxR1 inh: 3.55µM*; GALK inhibitor: -1.2%

What do the screens show for `O=C(COC(=O)c1ccc([N+](=O)[O-])o1)NCc1ccc(F)cc1`?
TrxR1 substrate: -4.6%; PINK1 expr mod: 1.1%; TrxR1 inh: inconclusive

Results for CC1CCCCC1NC(=O)COC(=O)c1ccc([N+](=O)[O-])o1 (stereo not drawn) ?
TrxR1 substrate: 0.6%[57.1 µM]; PINK1 expr mod: 2.4%; TrxR1 inh: -19.8%[57.1 µM]

How did CCOc1ccccc1-n1nnc(S(=O)(=O)c2ccc(C)cc2)c1N do in these assays?
miR-21 FLuc: 5.9%; TrxR1 substrate: -5.0%; PINK1 expr mod: 1.3%; TrxR1 inh: -8.7%

Results for CCN(CC)C(=O)Cn1c(SCCOc2ccc(Cl)cc2)nc2ccccc21 ?
miR-21 FLuc: 1.2%; TrxR1 substrate: 0.7%; PINK1 expr mod: -0.2%; TrxR1 inh: 1.1%

Results for Cc1ccc(S(=O)(=O)N2CCCc3cc(NS(=O)(=O)c4ccc(F)cc4)ccc32)cc1 ?
miR-21 FLuc: 10.9%; TrxR1 substrate: -2.3%[57.1 µM]; PINK1 expr mod: 19.7%; TrxR1 inh: 7.6%[57.1 µM]

What do the screens show for `O=C(COC(=O)c1ccc([N+](=O)[O-])o1)NC1CCCCC1`?
TrxR1 substrate: -8.5%; PINK1 expr mod: 0.3%; TrxR1 inh: 15.8µM*

Results for COc1cc(C(=O)OCC(=O)NC2CCS(=O)(=O)C2)c([N+](=O)[O-])cc1OC (stereo not drawn) ?
miR-21 FLuc: 0.4%; TrxR1 substrate: -2.7%[57.1 µM]; PINK1 expr mod: 0.3%; TrxR1 inh: 3.6%[57.1 µM]; GALK inhibitor: -2.2%

Results for O=C(COC(=O)c1ccc([N+](=O)[O-])o1)NC1CCCC1 ?
TrxR1 substrate: -2.1%; PINK1 expr mod: -1.1%; TrxR1 inh: inconclusive

What do the screens show for `CS(=O)(=O)c1ccc(C(=O)OCC(=O)NC2CCS(=O)(=O)C2)cc1[N+](=O)[O-]` (stereo not drawn)?
miR-21 FLuc: -0.6%; TrxR1 substrate: 3.7%; PINK1 expr mod: -1.3%; TrxR1 inh: 7.94µM*; GALK inhibitor: 8.6%

Results for O=c1cc(-c2ccccc2)n2c(SCc3ccc(Br)cc3)nnc2[nH]1 ?
miR-21 FLuc: -1.8%; TrxR1 substrate: 2.0%[57.1 µM]; PINK1 expr mod: 16.9%; TrxR1 inh: 28.5%[57.1 µM]

How did CCCC(=O)NC1=C(Cl)C(=O)c2ccccc2C1=O do in these assays?
TrxR1 substrate: 1.5%[11.4 µM]; PINK1 expr mod: -1.9%; TrxR1 inh: 0.398µM*

How did Cc1ccc(NC2=C(Cl)C(=O)c3ccccc3C2=O)cc1 do in these assays?
miR-21 FLuc: -50.5%; TrxR1 substrate: -6.1%; PINK1 expr mod: -5.7%; TrxR1 inh: 3.55µM*; GALK inhibitor: 0.7%

Overlap with the part before: 3 compounds, followed by the next part.
Results for O=c1cc(-c2ccccc2)n2c(SCc3ccc(Br)cc3)nnc2[nH]1 ?
miR-21 FLuc: -1.8%; TrxR1 substrate: 2.0%[57.1 µM]; PINK1 expr mod: 16.9%; TrxR1 inh: 28.5%[57.1 µM]

How did CCCC(=O)NC1=C(Cl)C(=O)c2ccccc2C1=O do in these assays?
TrxR1 substrate: 1.5%[11.4 µM]; PINK1 expr mod: -1.9%; TrxR1 inh: 0.398µM*

How did Cc1ccc(NC2=C(Cl)C(=O)c3ccccc3C2=O)cc1 do in these assays?
miR-21 FLuc: -50.5%; TrxR1 substrate: -6.1%; PINK1 expr mod: -5.7%; TrxR1 inh: 3.55µM*; GALK inhibitor: 0.7%

How did CCN(CC)c1ccc(NC2=C(Cl)C(=O)c3ccccc3C2=O)cc1 do in these assays?
miR-21 FLuc: -49.5%; TrxR1 substrate: -11.0%; PINK1 expr mod: -5.7%; TrxR1 inh: 2.51µM*; GALK inhibitor: 3.4%

How did COCC(=O)Nc1cc(C(=O)N2CCCC2c2nccs2)c2c(c1)nc(-c1ccncc1)n2C (stereo not drawn) do in these assays?
PINK1 expr mod: 1.3%

Results for OC(c1cccnc1)c1ccc2c(c1)CN(Cc1ccc(-c3ccccc3Cl)o1)CCO2 (stereo not drawn) ?
PINK1 expr mod: 3.2%

What do the screens show for `O=C(NCC1(N2CCOCC2)CCCC1)c1cnn(-c2nccc(-c3ccco3)n2)c1C1CC1`?
PINK1 expr mod: 0.4%

What do the screens show for `C=C1C(=O)O[C@@H]2[C@H]1CC[C@H](C)[C@]1(O)CCC(=O)[C@@]21C`?
miR-21 FLuc: 19.2%; TrxR1 substrate: 4.2%; PINK1 expr mod: -0.7%; TrxR1 inh: 5.8%; GALK inhibitor: 2.1%

What do the screens show for `C=C1C(=O)O[C@@H]2[C@H]3O[C@]3(C)CCC=C(C)CC[C@@H]12`?
TrxR1 substrate: 17.9%[57.1 µM]; TrxR1 inh: 16.8µM*!

What do the screens show for `COc1ccc2nc(N3C(=O)/C(=C/c4ccc(Cl)cc4)NC3=S)sc2c1`?
miR-21 FLuc: -4.7%; TrxR1 substrate: -0.7%[57.1 µM]; PINK1 expr mod: 22.4µM*; TrxR1 inh: 9.6%[57.1 µM]; GALK inhibitor: -3.8%

How did Cc1nc(N2CCN(C)CC2)c2sc(=S)n(-c3ccccc3)c2n1 do in these assays?
miR-21 FLuc: -7.7%; TrxR1 substrate: 7.4%[57.1 µM]; PINK1 expr mod: 1.5%; TrxR1 inh: 16.1%[57.1 µM]; GALK inhibitor: -0.9%

How did S=c1sc2c(Cl)ncnc2n1-c1ccccc1 do in these assays?
miR-21 FLuc: inconclusive; TrxR1 substrate: -3.6%; PINK1 expr mod: -2.8%; TrxR1 inh: 15.8µM*; GALK inhibitor: -4.0%

How did O=C(Nc1ccc(Br)c2ccccc12)c1ccc2ccccc2c1O do in these assays?
miR-21 FLuc: 27.6%; TrxR1 substrate: 9.9%[57.1 µM]; PINK1 expr mod: 25.1µM*; TrxR1 inh: 39.2%[0.0914 µM]; GALK inhibitor: -3.1%

Results for Cc1nc2c(-c3ccc(F)cc3)c(C)nn2c(C)c1CCC(=O)NC(C)CCc1ccco1 (stereo not drawn) ?
miR-21 FLuc: -4.3%; TrxR1 substrate: -6.5%; PINK1 expr mod: 0.5%; TrxR1 inh: 79.4µM*; GALK inhibitor: -1.9%
